One substance from US20040043043A1, “Preparation of emulsions and concentrates thereof” (priority 2000, published 2004) can be followed below.

Data set [1] can be described thus: Chemical stability study: vitamin contents on storage at 20 °C/ambient RH. To be noted: for Content after 18 months: Example 4 syrup; for Initial content: Example 4 vitamin and mineral syrup.
Experiment in data set [2]: as above
To be noted: Example 4 syrup, two batches.

Iron: the “Content after 18 months” value in data set [1] (batch 1, 20 °C/ambient RH) is given as 10.6, 10.6 mg/5 ml; in data set [1] (batch 2, 20 °C/ambient RH), 10.6, 10.6 mg/5 ml. Moreover, the Initial content in data set [1] (batch 1, time 0) is reported as 10.9 mg/5 ml; in data set [1] (batch 2, time 0), 10.4 mg/5 ml. For the same substance, in data set [2], the “Recovery (initial versus nominal)” value stood at 106.5%.
